Key:
CRL4^CRBN = target: T1, CRL4^CRBN (Homo sapiens, UniProt Q96SW2); assay: GFP/mCherry reporter assay for degradation of degron-eGFP fusion proteins in Jurkat T cells; type: cell-based; settings: by 3 hours after addition of 1 μM pomalidomide
T1 construct: endogenous in cells; host or cells: Jurkat T cells (ligase endogenous; degron-eGFP reporters lentivirally transduced)
Description: First, the FMC63 anti-CD19 scFv was exchanged for the CD28 Ig-like V-type extracellular domain. […] Experiments were performed in triplicate.
[…] Cells were analyzed by flow cytometry for eGFP and mCherry fluorescence. 1000 mCherry+ cells were analyzed per sample, and the geometric mean of the per-cell eGFP/mCherry ratio was calculated in Flowjo. In Pomalidomide dose titration studies, the EC50 was calculated by non-linear regression in Prism. Experiments were performed in triplicate. In some cases cell surface protein expression was assayed in parallel with the above reporter assay; cells were stained with anti-CD28-BV421 antibody (BD Biosciences 562613) at a 1:50 dilution in FACS buffer (PBS+2% FCS+2 mM EDTA) for 10 minutes on ice. Cells were washed with FACS buffer and analyzed by flow cytometry.
First, the FMC63 anti-CD19 scFv was exchanged for the CD28 Ig-like V-type extracellular domain.

Chains of the proteins cited; added tags and fusions are not shown. Where a name states a change or a piece, a line headed by the entry shows the natural chain unless it says otherwise. Chains listed by the source or under a name are the forms on record and can include a tag or linker.
UniProt Q96SW2: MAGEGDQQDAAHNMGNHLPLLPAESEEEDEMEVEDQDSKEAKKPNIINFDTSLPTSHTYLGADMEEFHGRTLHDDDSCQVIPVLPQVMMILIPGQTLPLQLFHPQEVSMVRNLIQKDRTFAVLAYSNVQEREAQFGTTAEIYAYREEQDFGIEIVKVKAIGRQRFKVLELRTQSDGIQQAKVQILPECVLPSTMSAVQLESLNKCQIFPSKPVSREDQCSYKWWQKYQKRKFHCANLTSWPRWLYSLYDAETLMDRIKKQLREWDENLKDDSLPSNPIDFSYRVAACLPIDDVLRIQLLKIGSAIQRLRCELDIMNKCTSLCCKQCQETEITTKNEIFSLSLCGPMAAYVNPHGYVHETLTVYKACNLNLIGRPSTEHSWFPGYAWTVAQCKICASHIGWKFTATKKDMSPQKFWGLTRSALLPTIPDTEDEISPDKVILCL
CRBN (Homo sapiens, UniProt Q96SW2), as listed by the source partner: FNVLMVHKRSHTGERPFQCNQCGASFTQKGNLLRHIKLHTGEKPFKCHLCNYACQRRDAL

CRBN = CRBN (Homo sapiens, UniProt Q96SW2); assay: Internalization and degradation of CD28-degron-GFP in 293T cells; type: cell-based; design: endogenous in cells; host or cells: 293T (CRBN endogenous; control cells 293T-CRBNΔe5 lack it)
Description: Transduced cells were incubated with a range of Pomalidomide concentrations or DMSO for 20 hours. Cells were analyzed by flow cytometry for eGFP and mCherry fluorescence. 1000 mCherry+ cells were analyzed per sample, and the geometric mean of the per-cell eGFP/mCherry ratio was calculated in Flowjo. In Pomalidomide dose titration studies, the EC50 was calculated by non-linear regression in Prism. Experiments were performed in triplicate. In some cases cell surface protein expression was assayed in parallel with the above reporter assay; cells were stained with anti-CD28-BV421 antibody (BD Biosciences 562613) at a 1:50 dilution in FACS buffer (PBS+2% FCS+2 mM EDTA) for 10 minutes on ice. Cells were washed with FACS buffer and analyzed by flow cytometry.
As shown in FIG. 13 an OFF-switch CAR construct was designed that presents an engineered element capable of causing intracellular degradation of the CAR in a precise, input-responsive manner. The input-responsive element is referred to as an “engineered degron,” and the input to which the degron responds in certain aspects of the instant disclosure is an IMiD (e.g., pomalidomide).

CD28-CD3ζ-degron: Fusion of full length CD28, intracellular domain of CD3z and IKZF3 (amino acids 130-189); SEQ ID NO: 83
degradation of degron-eGFP protein (CRL4^CRBN): ~80%

CD28-degron: In frame fusion of full length CD28, a SG linker, and IKZF3 (amino acids 130-189); SEQ ID NO: 82
degradation (normalized GFP signal) (CRBN; 10 μM pomalidomide, 293T cells expressing wild-type CRBN): dramatic degradation effect
cell surface internalization (CRBN; 20h pomalidomide treatment): internalized upon treatment with pomalidomide in a CRBN-dependent manner

— patent US12049482B2, “Molecular switch-mediated control of engineered cells” (THE GENERAL HOSPITAL CORPORATION, priority 2017, dated 2024)
